Data as given in patent publication US12201627B2, “NLRP3 modulators” (Innate Tumor Immunity, Inc., priority 2018, dated 2025).

Protein sequences, listed by entry. Tags and fused reporters are not part of them.
UniProt Q96P20, whole entry: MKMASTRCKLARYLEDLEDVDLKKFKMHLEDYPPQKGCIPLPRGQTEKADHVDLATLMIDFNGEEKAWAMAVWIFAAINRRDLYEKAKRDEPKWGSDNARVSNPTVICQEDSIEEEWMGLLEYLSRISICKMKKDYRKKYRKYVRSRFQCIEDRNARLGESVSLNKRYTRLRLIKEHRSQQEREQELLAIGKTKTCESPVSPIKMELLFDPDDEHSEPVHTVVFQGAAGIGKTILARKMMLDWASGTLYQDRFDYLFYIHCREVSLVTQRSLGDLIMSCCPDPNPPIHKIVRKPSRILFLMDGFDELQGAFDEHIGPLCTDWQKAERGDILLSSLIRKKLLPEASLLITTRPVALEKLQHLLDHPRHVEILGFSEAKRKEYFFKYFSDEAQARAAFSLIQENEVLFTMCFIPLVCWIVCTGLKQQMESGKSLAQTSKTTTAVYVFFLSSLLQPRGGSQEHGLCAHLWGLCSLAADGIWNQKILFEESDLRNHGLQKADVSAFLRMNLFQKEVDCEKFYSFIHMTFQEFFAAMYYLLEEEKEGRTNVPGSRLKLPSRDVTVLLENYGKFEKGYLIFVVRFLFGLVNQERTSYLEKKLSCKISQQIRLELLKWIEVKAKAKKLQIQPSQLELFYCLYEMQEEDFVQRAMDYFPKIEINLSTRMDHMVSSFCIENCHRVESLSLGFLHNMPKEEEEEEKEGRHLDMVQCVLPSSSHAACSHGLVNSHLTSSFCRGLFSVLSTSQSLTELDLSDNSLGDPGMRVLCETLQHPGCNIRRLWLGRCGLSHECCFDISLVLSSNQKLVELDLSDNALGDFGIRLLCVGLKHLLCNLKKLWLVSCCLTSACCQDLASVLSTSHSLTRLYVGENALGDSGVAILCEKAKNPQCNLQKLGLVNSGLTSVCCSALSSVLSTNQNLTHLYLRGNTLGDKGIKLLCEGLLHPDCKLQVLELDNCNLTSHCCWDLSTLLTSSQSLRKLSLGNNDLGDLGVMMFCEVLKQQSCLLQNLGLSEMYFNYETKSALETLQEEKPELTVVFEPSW

Molecular target: NLRP3 (Homo sapiens, UniProt Q96P20)
Assay: Measurement of IL-1β production in PMA-differentiated THP-1 cells (NLRP3 hIL1B)
Details: read-out: NLRP3 hILIB IC50
Method: Measurement of IL-1β Production in PMA-Differentiated THP-1 Cells
THP-1 cells were purchased from the American Type Culture Collection and sub-cultured according to instructions from the supplier. Prior to experiments, cells were cultured in RPMI 1640 containing 10% heat inactivated FBS, penicillin (100 units/ml) and streptomycin (100 μg/ml), and maintained in log phase prior to experimental setup. Prior to the experiment THP-1 were treated with PMA (Phorbol 12-myristate 13-acetate) ([…]) for 24 hours. The day of the experiment the media was removed and attaching cells were treated with trypsin for 2 minutes, cells were then collected, washed with PBS (phosphate buffer saline), spin down, resuspended in 2% heat inactivated FBS with RPMI at a concentration of 1×10^6 cells/ml, and 100 μl was plated in a 96 well plate. Compounds were dissolved in dimethyl sulfoxide (DMSO) and added to the culture medium to achieve desired concentration (e.g. 100, 30, 10, 3, 1, 0.3 or 0.1 μM). Cells were incubated with compounds for 4 hours. Cell free supernatant was collected and the production of IL-1β was evaluated by ELISA. […]
THP-1 cells were purchased from the American Type Culture Collection and sub-cultured according to instructions from the supplier. […] Cell free supernatant was collected and the production of IL-1β was evaluated by ELISA. […]

Nc1nc2cc(-c3cc[nH]n3)ccc2c2c1nc(CN1CC(F)(F)C1)n2C1CC1
IC50: 110 nM
